Patent US5030649A, “2-aminoethylamine derivatives, compositions of the same and use of said compounds in medicine” (dated 1991)

Amino acid sequences for entries named in this document (tags omitted). A change or cut given only in a name is not applied to a line headed by its entry. Residues count along the entry.
UniProt P41144: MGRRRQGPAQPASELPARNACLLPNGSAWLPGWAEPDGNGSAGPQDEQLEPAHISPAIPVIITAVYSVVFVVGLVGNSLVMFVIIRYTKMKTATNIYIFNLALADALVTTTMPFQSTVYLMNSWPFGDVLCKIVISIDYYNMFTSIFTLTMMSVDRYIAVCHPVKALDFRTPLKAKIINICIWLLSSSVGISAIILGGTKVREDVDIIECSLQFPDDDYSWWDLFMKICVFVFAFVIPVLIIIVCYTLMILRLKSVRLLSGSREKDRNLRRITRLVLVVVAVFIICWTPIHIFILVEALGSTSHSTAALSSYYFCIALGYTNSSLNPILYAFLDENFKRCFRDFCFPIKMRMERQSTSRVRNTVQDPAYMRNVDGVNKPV
UniProt A0ACM8Q262, 1-400: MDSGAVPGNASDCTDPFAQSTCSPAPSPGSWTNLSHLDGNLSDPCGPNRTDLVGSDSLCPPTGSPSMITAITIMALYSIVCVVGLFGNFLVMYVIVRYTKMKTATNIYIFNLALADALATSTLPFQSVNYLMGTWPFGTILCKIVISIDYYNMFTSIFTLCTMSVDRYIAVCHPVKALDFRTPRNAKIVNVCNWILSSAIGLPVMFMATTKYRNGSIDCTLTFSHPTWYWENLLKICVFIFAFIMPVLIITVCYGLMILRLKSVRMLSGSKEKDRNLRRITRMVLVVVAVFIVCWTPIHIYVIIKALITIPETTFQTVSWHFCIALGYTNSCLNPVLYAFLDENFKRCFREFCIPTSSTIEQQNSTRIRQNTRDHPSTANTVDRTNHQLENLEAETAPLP

Assays:
[1] = Mouse tail-flick test (analgesic activity, subcutaneous); conditions: subcutaneous in isotonic saline, 30 min after dosing, activity = percent of mice doubling initial reaction time
kappa opioid receptor = kappa opioid receptor (Cavia porcellus, UniProt P41144); assay: Receptor affinity study: binding to K (kappa) sites, tritiated ethylketocyclazocine, brain homogenate; conditions: read-out: OPIATE RECEPTORS BINDING kappa Ki, guinea pig brain homogenate, 100 nM DADLE and 100 nM DAGO, 25° C., 40 min
μ opioid receptor = μ opioid receptor (Cavia porcellus, UniProt A0ACM8Q262); assay: Receptor affinity study: binding to μ sites, 3H-DAGO, brain homogenate; conditions: read-out: OPIATE RECEPTORS BINDING mu Ki, guinea pig brain homogenate, 25° C., 40 min

Structure (SMILES): CN(C)C[C@H](c1ccccc1)N(C)C(=O)Cc1ccc(C(F)(F)F)cc1
- MOUSE TAIL-FLICK ED50 SUBCUTANEOUS [1]: 0.39 mg/kg
- Ki (kappa opioid receptor): 3.2 nM
- Ki (μ opioid receptor): > 1000 nM

Structure (SMILES): CN(C(=O)Cc1ccc([N+](=O)[O-])cc1)[C@H](CN1CCCC1)c1ccccc1 [listing 1 of 2 here]
- MOUSE TAIL-FLICK ED50 SUBCUTANEOUS [1]: 0.036 mg/kg

Structure (SMILES): CN(C(=O)Cc1ccccc1[N+](=O)[O-])[C@H](CN1CCCC1)c1ccccc1
- MOUSE TAIL-FLICK ED50 SUBCUTANEOUS [1]: 3.5 mg/kg
- Ki (kappa opioid receptor): 3.56 nM
- Ki (μ opioid receptor): 1220 nM

Structure (SMILES): CN(C(=O)Cc1ccc(C(F)(F)F)cc1)[C@H](CN1CCCC1)c1ccccc1 [listing 1 of 2 here]
- Ki (kappa opioid receptor): 1.9 nM

Structure (SMILES): CN(C(=O)Cc1ccc(C(F)(F)F)cc1)[C@H](CN1CCCC1)c1ccccc1 [listing 2 of 2 here]
- MOUSE TAIL-FLICK ED50 SUBCUTANEOUS [1]: 0.030 mg/kg
- Ki (μ opioid receptor): 500 nM

Structure (SMILES): CN(C)C[C@H](c1ccccc1)N(C)C(=O)Cc1ccccc1[N+](=O)[O-]
- MOUSE TAIL-FLICK ED50 SUBCUTANEOUS [1]: 5.0 mg/kg
- Ki (kappa opioid receptor): 14.5 nM
- Ki (μ opioid receptor): > 1000 nM

Structure (SMILES): CN(C)C[C@H](c1ccccc1)N(C)C(=O)Cc1ccc([N+](=O)[O-])cc1
- MOUSE TAIL-FLICK ED50 SUBCUTANEOUS [1]: 0.4 mg/kg
- Ki (kappa opioid receptor): 7.89 nM
- Ki (μ opioid receptor): 544 nM

Structure (SMILES): CN(C(=O)Cc1ccc(Cl)c(Cl)c1)[C@H](CN1CCCC1)c1ccccc1
- MOUSE TAIL-FLICK ED50 SUBCUTANEOUS [1]: 0.022 mg/kg
- Ki (μ opioid receptor): 124 nM

Structure (SMILES): CN(C)C[C@H](c1ccccc1)N(C)C(=O)Cc1cccc([N+](=O)[O-])c1
- MOUSE TAIL-FLICK ED50 SUBCUTANEOUS [1]: 0.13 mg/kg
- Ki (kappa opioid receptor): 1.29 nM
- Ki (μ opioid receptor): 1050 nM

Structure (SMILES): CN(C)C[C@H](Cc1ccccc1)N(C)C(=O)Cc1ccc(Cl)c(Cl)c1
- Ki (kappa opioid receptor): > 100 nM

Structure (SMILES): CN(C(=O)Cc1cccc([N+](=O)[O-])c1)[C@H](CN1CCCC1)c1ccccc1
- MOUSE TAIL-FLICK ED50 SUBCUTANEOUS [1]: 0.036 mg/kg
- Ki (kappa opioid receptor): 0.49 nM
- Ki (μ opioid receptor): 194 nM

Structure (SMILES): CN(C(=O)Cc1ccc([N+](=O)[O-])cc1)[C@H](CN1CCCC1)c1ccccc1 [listing 2 of 2 here]
- Ki (kappa opioid receptor): 1.29 nM
- Ki (μ opioid receptor): 100 nM

Structure (SMILES): CN(C(=O)Cc1ccc(Cl)c(Cl)c1)[C@@H](Cc1ccccc1)CN1CCCC1
- Ki (kappa opioid receptor): > 100 nM

Structure (SMILES): CN(C)C[C@H](c1ccccc1)N(C)C(=O)Cc1ccc(Cl)c(Cl)c1
- MOUSE TAIL-FLICK ED50 SUBCUTANEOUS [1]: 0.1 mg/kg
- Ki (kappa opioid receptor): 2.01 nM
- Ki (μ opioid receptor): 518 nM

Structure (SMILES): CCN(C(=O)Cc1ccc(Cl)c(Cl)c1)[C@H](CN(C)C)c1ccccc1
- MOUSE TAIL-FLICK ED50 SUBCUTANEOUS [1]: 0.28 mg/kg
- Ki (kappa opioid receptor): 4.79 nM
- Ki (μ opioid receptor): 874 nM
